pIC50: −log10 of the molar value.
Assays:
PARP1 enzyme = PARP1 enzyme (Homo sapiens (Human), UniProt P09874); assay: PARP Mass Spectroscopy Assay (PARP1 enzymatic assay, nicotinamide detection); conditions: read-out: PARP1 IC50; 5 nM PARP1, 5 uM β-NAD, 60 min at RT, NAM by mass spectrometry
Source text: Materials and Reagents: The PARP1 enzyme was purchased from BPS Bioscience (cat #80501). Tris-HCl, pH 8.0 was purchased from Corning (cat #46-031-CM). Magnesium chloride was purchased from Thermo Fisher Scientific (previously Honeywell Fluka, cat #63020-1L). All other assay components, activated DNA (cat #D4522), core histones (cat #SRP6590), β-Nicotinamide adenine dinucleotide (β-NAD—cat #N8285), 3ABA PARP1 small molecule inhibitor (from the PARP1 Enzyme Activity Assay kit, cat #17-10149), Sodium Chloride (NaCl, cat #56546-1L), Triton X-100 (cat #93443), Dithiothreitol (DTT, cat #43816-250 ML) were all purchased from Millipore Sigma.
Assay Buffer: The assay buffer includes the following reagents: 50 mM Tris-HCl pH 8.0, 50 mM NaCl, 10 mM, MgCl2, 0.01% Triton X-100, and 1 mM DTT.
PARP1 enzymatic assays were performed in 384-well plates in a total volume of 20 μL in the assay buffer. For concentration response curves, compounds were serially diluted 3-fold from 2 mM highest concentration […] to generate a 10-point curve, and 125 nL was transferred to the assay plate using the Echo acoustic dispenser for a final concentration range of 26.6 μM to […] in 10 μL reaction. Five microliters of 10 nM PARP1 enzyme and 100 nM core histones (2×) mix were added to the assay plates and pre-incubated for 30 mins at room temperature (RT). The reaction was initiated by the addition of a 5 μL of 10 uM β-NAD plus 0.02 mg/mL activated DNA (2×) mix. The reaction is incubated for 60 min at RT. The final concentration of the PARP1 enzyme and substrate concentrations were 5 nM and 5 uM, respectively. The positive control (high signal) and negative control (low signal) wells had 125 nL of DMSO in place of compounds. After the incubation is complete, the reaction is stopped by the addition of 10 μL of 10 uM of the 3ABA PARP1 inhibitor, incubated for 5 min at RT, and placed in the −80 C freezer for shipment to the Valo Health site in Branford Connecticut where mass spectrometry will be used to directly detect quantities of nicotinamide (NAM).
The percent inhibition of enzyme activity was calculated according to the following equation: […]
The values of Ssample, Shigh, and Slow in the equation refer to the NAM concentration detected in the assay wells, high control wells, and low control wells, respectively. To determine inhibitor IC50 values, % inhibition of the CRCs (concentration response curves) was fitted to the standard single-site four-parameter logistic equation.

Amino acid sequences for entries named in this document (tags omitted).
UniProt P09874, whole entry: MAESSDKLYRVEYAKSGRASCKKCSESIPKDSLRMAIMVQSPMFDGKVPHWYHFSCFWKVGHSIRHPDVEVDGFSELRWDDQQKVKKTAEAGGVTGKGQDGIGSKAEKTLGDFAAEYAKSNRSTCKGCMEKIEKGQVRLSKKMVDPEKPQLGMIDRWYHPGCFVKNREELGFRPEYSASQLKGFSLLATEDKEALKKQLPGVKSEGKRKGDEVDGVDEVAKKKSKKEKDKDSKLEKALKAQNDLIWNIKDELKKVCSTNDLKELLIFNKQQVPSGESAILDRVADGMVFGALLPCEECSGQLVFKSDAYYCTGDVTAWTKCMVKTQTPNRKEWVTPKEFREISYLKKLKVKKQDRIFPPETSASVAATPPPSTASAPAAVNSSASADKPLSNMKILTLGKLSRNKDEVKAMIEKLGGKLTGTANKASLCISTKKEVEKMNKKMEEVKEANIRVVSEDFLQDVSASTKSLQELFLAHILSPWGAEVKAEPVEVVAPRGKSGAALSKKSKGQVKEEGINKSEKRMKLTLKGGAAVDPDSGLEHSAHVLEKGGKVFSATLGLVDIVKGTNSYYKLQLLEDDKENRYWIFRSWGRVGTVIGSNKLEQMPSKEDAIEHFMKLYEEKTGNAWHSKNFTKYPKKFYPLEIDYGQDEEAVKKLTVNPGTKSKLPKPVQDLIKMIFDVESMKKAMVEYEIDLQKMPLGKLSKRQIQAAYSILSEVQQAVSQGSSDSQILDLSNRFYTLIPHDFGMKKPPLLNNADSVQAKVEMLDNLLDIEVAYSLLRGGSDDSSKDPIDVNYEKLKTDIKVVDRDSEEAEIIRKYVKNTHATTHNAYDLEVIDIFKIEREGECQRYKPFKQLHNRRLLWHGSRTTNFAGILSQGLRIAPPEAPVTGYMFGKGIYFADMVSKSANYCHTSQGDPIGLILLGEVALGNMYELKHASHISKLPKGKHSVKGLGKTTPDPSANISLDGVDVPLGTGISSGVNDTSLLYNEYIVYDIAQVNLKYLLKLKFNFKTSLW
UniProt P08183, whole entry: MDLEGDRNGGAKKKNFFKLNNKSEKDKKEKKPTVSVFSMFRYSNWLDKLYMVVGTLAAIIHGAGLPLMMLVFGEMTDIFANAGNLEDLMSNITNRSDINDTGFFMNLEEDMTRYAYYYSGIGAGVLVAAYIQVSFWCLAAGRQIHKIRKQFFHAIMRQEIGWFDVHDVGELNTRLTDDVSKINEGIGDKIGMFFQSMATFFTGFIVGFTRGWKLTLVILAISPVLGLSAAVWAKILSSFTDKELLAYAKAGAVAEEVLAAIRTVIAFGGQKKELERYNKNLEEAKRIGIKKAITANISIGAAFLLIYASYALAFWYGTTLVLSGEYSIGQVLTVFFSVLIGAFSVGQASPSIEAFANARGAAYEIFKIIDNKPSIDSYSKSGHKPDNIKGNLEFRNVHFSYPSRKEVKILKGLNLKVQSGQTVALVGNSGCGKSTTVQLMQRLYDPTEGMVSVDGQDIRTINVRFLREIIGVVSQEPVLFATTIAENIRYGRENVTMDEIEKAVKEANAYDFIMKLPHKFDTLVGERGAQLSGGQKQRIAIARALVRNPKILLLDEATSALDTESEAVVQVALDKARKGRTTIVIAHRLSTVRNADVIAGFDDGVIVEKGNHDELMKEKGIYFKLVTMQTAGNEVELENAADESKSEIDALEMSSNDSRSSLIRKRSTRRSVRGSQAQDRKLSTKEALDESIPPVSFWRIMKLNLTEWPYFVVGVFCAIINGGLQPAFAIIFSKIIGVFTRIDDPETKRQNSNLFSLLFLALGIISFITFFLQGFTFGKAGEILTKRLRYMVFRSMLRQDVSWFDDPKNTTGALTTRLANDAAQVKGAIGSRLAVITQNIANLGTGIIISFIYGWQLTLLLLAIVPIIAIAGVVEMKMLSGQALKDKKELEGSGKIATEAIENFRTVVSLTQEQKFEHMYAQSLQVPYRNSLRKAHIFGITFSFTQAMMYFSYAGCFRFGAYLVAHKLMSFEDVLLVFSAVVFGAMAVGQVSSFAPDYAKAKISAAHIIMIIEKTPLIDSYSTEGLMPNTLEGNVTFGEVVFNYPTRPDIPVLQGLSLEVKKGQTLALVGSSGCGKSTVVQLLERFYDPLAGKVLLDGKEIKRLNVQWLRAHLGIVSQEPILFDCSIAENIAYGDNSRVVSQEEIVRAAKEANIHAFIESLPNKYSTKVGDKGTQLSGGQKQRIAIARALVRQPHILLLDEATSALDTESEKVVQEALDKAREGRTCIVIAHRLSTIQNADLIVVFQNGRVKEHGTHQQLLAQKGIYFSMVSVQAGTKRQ

[1] = target: human MDR1 (P-glycoprotein; P-gp) (Homo sapiens (Human), UniProt P08183); assay: bi-directional MDCK-MDR1 permeability assay; conditions: for MDCK-MDR1 Papp A→B (10^−6 cm/s): apical to basolateral direction; for MDCK-MDR1 ER: efflux ratio B→A/A→B
Source text: The bi-directional assay containing a Mandin Darby canine kidney (MDCK) cell line transfected with human MDR1 gene (P-glycoprotein; P-gp) designed to overexpress the MDR1 efflux transporter, a major efflux transporter at the blood brain barrier (BBB), uses an established method that measures the rate of flux of a compound across polarized cell monolayers. As well appreciated in the art, the data generated from the MDCK-MDR1 permeability assay may be used to predict in vivo absorption of drugs. The bi-directional MDCK-MDR1 permeability assay can identify and quantify levels of active efflux. Screening compounds in both the apical to basolateral direction (A→B) and basolateral to apical direction (B→A) across the cell monolayer provides a ratio of B→A/A→B (efflux ratio; “ER”). Unlike the Caco-2 assay, the MDCK-MDR1 assay is not subject to potential efflux interference by breast cancer resistance protein (BCRP). […] The data may further be used to predict blood brain barrier (BBB) permeability via calculation from the data of log(permeability-surface area product) (“log PS”), well-understood to be predictive of the in vivo log([brain concentration]/[plasma concentration]).

Row | SMILES | pIC50 (PARP1 enzyme) | MDCK-MDR1 Papp A→B (10^−6 cm/s) [1] | MDCK-MDR1 ER [1]
1 | COCCN1CC[C@H]([C@H]2Nc3cc(F)cc4c(=O)[nH]nc(c34)[C@@H]2c2ccccc2Cl)C1 | 7.00 | 0.751 10^−6 cm/s | 36.3
2 | COCCN1CC[C@@H]([C@H]2Nc3cc(F)cc4c(=O)[nH]nc(c34)[C@@H]2c2ccccc2Cl)C1 | 6.54 |  | 
3 | C[C@@H]1Nc2cc(F)cc3c(=O)[nH]nc(c23)[C@H]1c1ccc(C#N)c(F)c1 | 8.05 |  | 
4 | CC(C)(C)C[C@@H]1Nc2cc(F)cc3c(=O)[nH]nc(c23)[C@H]1c1c(F)cc(F)cc1F | 7.31 |  | 
5 | C[C@@H]1Nc2cc(F)cc3c(=O)[nH]nc(c23)[C@H]1c1ccc(Cl)cc1F | 7.57 | 13.1 10^−6 cm/s | 0.541
6 | COCCN1CC[C@H]([C@@H]2Nc3cc(F)cc4c(=O)[nH]nc(c34)[C@H]2c2ccc(F)cc2F)C1 | 6.92 | 4.46 10^−6 cm/s | 7.76
7 | COCCN1CC[C@@H]([C@H]2Nc3cc(F)cc4c(=O)[nH]nc(c34)[C@@H]2c2ccc(F)cc2F)C1 | 7.10 | 0.866 10^−6 cm/s | 33.1
8 | COCCN1CC[C@@H]([C@@H]2Nc3cc(F)cc4c(=O)[nH]nc(c34)[C@H]2c2ccc(F)cc2F)C1 | 5.91 |  | 
9 | O=c1[nH]nc2c3c(cc(F)cc13)N[C@H](c1c(F)cc(F)cc1F)[C@H]2C1CCNCC1 | 7.01 |  | 
10 | COCCN1CC[C@H]([C@H]2Nc3cc(F)cc4c(=O)[nH]nc(c34)[C@@H]2c2ccc(F)cc2F)C1 | 7.29 |  | 
11 | COCCN1CC[C@@H]([C@@H]2Nc3cc(F)cc4c(=O)[nH]nc(c34)[C@H]2c2ccccc2Cl)C1 | 5.51 |  | 
12 | COCCN1CC[C@H]([C@@H]2Nc3cc(F)cc4c(=O)[nH]nc(c34)[C@H]2c2ccccc2Cl)C1 | 7.07 |  | 

From patent US20250346599A1, “TRICYCLIC PHTHALAZINONE PARP INHIBITORS AND METHODS OF USE” (Valo Health, Inc., priority 2022, published 2025)
